The target in this assay is Collagenase. The assay can be described thus: Inhibition of human collagenase (MMP1). The class given is protein assay.

One may read the IC50 as the concentration that inhibits the measured activity by half. Lower therefore signals greater potency. In the case of `CNC(=O)[C@H](NC(=O)[C@H](CC(C)C)[C@@H](CN1C(=O)c2ccccc2C1=O)C(=O)NO)C(C)(C)C`, the IC50 came out at 0.5 nM.

For the origin of these results see ChEMBL document CHEMBL1130523, “Design and synthesis of the cartilage protective agent (CPA, Ro32-3555)” (Bioorg Med Chem Lett, 1997).
